Test results as given in patent publication US12643906B2 (dated 2026).

The chains behind the UniProt entries cited, without tags or fusion partners. Residues count along the entry.
UniProt P08922, 1883-2347 limits assumed: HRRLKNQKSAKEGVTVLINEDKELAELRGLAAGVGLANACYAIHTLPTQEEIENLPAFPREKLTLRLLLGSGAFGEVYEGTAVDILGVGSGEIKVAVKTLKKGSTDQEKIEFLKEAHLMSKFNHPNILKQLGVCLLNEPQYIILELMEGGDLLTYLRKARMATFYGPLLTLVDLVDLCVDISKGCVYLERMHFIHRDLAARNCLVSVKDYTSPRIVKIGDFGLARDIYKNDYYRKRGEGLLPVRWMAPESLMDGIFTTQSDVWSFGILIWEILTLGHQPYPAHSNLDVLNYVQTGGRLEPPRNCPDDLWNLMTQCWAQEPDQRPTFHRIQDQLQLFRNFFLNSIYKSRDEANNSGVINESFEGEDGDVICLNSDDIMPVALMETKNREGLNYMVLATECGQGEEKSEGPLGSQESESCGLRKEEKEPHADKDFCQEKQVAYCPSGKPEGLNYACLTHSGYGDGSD

Target: ROS1 (Homo sapiens, UniProt P08922)
Test: Kinase inhibition assay with fluorescein labeled peptide, ROS1
Assay type: biochemical

## C[C@@H]1CCc2ncc(F)cc2[C@H]2CCCN2c2ccn3ncc(c3n2)C(=O)N1 [LOXO-195, reference compound]
  IC50: 0.66 nM
